{
  "source": "patent US20070198063A1",
  "about": "“Electrical devices and anti-scarring drug combinations” (priority 2005, published 2007)",
  "origin": "cited, not measured here",
  "conditions": "solvent named in the value; cited from earlier work",
  "data": [
    {"substance": "phenazopyridine-HCl", "values": [
      {"measurement": "solubility, in words", "value": "slightly soluble in water and alcohol"}
    ]}
  ]
}
